Experimental data published in PubChem BioAssay AID651658 (Broad Institute, 2012).
The entries are a selection whose mix differs from that of the whole data set. The source made the active and inactive calls.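 The calls were made as follows: active = mean Tm shift, scaled 0 neutral to 100 positive control, at about 1.3% or above, every replicate too (limit read from the data); inconclusive = no clear call, values can overlap the other calls; inactive = the rest.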

Sequences of proteins named here, by UniProt entry; tags and fusion partners are left off.
UniProt Q9HCT0, whole entry: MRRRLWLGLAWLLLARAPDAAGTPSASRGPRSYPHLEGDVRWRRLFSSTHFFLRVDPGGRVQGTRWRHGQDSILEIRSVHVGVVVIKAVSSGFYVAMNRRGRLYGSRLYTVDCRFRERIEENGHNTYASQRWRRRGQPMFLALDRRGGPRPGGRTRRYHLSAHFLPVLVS

These compounds were tested against Fibroblast growth factor 22 (Homo sapiens) (UniProt Q9HCT0) (assay: FGF22 ligand-induced thermal stabilization – biophysical, thermal shift, single point, FGF22 synaptogenesis inhibitor project, primary screen (AID 651658)). Conditions: recombinant FGF22 thermal shift, SYPRO orange fluorescence; at 9.99 µM; active compounds read high; percent of sucrose octasulfate shift, DMSO zero.
For `O=c1[nH]c2ccccc2n1C1CCN(C(c2cccs2)c2nnnn2C2CCCC2)CC1` (stereo not drawn), the activity (Tm shift, normalised) was inactive: -0.665%. `CCCCn1nnnc1C(c1cccc(OC)c1OC)N1CCC(n2c(=O)[nH]c3ccccc32)CC1` (stereo not drawn) was tested, and the activity (Tm shift, normalised) was inactive: -0.173%. For `COc1cccc(C(c2nnnn2C(C)(C)C)N2CCC(n3c(=O)[nH]c4ccccc43)CC2)c1OC` (stereo not drawn), the activity (Tm shift, normalised) was inactive: 0.513%. In the case of `CCOC(=O)N1CCC(Nc2ccc(C)cc2)CC1`, the activity (Tm shift, normalised) is reported as inactive: -0.587%. `O=c1[nH]c2ccccc2n1C1CCN(C(c2cccs2)c2nnnn2C2CCCCC2)CC1` (stereo not drawn) was tested, and the activity (Tm shift, normalised) was inactive: -0.575%. In the case of `COc1ccc(C(=O)NCC2(N3CCOCC3)CCCCC2)cc1OC`, the activity (Tm shift, normalised) is reported as inactive: 0.011%. `O=c1[nH]c2ccccc2n1C1CCN(C(c2ccnc3ccccc23)c2nnnn2C2CCCC2)CC1` (stereo not drawn) was tested, and the activity (Tm shift, normalised) was inactive: -0.283%. For `CCCCn1nnnc1C(c1ccccc1)N1CCC(n2c(=O)[nH]c3ccccc32)CC1` (stereo not drawn), the activity (Tm shift, normalised) was inactive: 0.348%. `COc1cc(C(=O)NCC2(N3CCOCC3)CCCCC2)cc(OC)c1C` was tested, and the activity (Tm shift, normalised) was inactive: -0.554%. `O=C(NCC1(N2CCOCC2)CCCCC1)c1cc(Br)ccc1Cl` was tested, and the activity (Tm shift, normalised) was inactive: -0.138%. `CC(C)(C)n1nnnc1C(c1cccc2ccccc12)N1CCC(n2c(=O)[nH]c3ccccc32)CC1` (stereo not drawn) was tested, and the activity (Tm shift, normalised) was inactive: -0.344%. In the case of `CN(C)C1(CNC(=O)c2cccc(C#N)c2)CCCCC1`, the activity (Tm shift, normalised) is reported as inactive: 0.466%. For `C/C(N)=N\P(=O)(Oc1ccccc1)Oc1ccccc1`, the activity (Tm shift, normalised) was inactive: -0.611%. For `Cc1cc(N(CCCl)CCCl)ccc1C=O`, the activity (Tm shift, normalised) was inactive: 0.13%. For `CCCN1CCC(Nc2cc(OC)cc(OC)c2)CC1`, the activity (Tm shift, normalised) was inactive: -0.694%. For `O=c1[nH]c2ccccc2n1C1CCN(C(c2ccccc2)c2nnnn2C2CCCC2)CC1` (stereo not drawn), the activity (Tm shift, normalised) was inactive: -0.309%. With `N#Cc1ccc(C(=O)NCC2(N3CCCCC3)CCCCC2)cc1` the activity (Tm shift, normalised) was inactive: 0.06%. In the case of `CC(C)(C)OC(=O)N1CCC(N(C(=O)c2ccccc2)c2ccc(Cl)cc2)CC1`, the activity (Tm shift, normalised) is reported as inactive: -0.366%. With `O=C(NCC1(N2CCCCC2)CCCCC1)c1ccco1` the activity (Tm shift, normalised) was inactive: -0.235%. For `Cn1c(=O)[nH]cc(N(CCCl)CCCl)c1=O`, the activity (Tm shift, normalised) was inactive: -0.299%. With `CN(C)c1ccc(C(=O)NCC2(N3CCCCC3)CCCCC2)cc1` the activity (Tm shift, normalised) was inactive: 0.101%. In the case of `Cc1ccccc1NC1(C#N)CCN(Cc2ccccc2)CC1`, the activity (Tm shift, normalised) is reported as inactive: 0.989%. For `CC(C)(C)n1nnnc1C(c1ccnc2ccccc12)N1CCC(n2c(=O)[nH]c3ccccc32)CC1` (stereo not drawn), the activity (Tm shift, normalised) was inactive: 0.307%. With `COc1ccc(C(c2nnnn2C2CCCCC2)N2CCC(n3c(=O)[nH]c4ccccc43)CC2)cc1` (stereo not drawn) the activity (Tm shift, normalised) was inactive: 0.228%. `Cc1ccc(C(=O)NCC2(N3CCCCC3)CCCCC2)o1` was tested, and the activity (Tm shift, normalised) was inactive: -0.205%. For `Fc1ccccc1NC1CCN(Cc2ccccc2)CC1`, the activity (Tm shift, normalised) was inactive: 0.315%. `Cc1ccc(NC2(C#N)CCN(Cc3ccccc3)CC2)cc1` was tested, and the activity (Tm shift, normalised) was inactive: -0.222%. For `CC(=O)N(c1ccccc1)C1CCNCC1`, the activity (Tm shift, normalised) was inactive: -0.032%. For `COc1cccc(C(c2nnnn2C2CCCCC2)N2CCC(n3c(=O)[nH]c4ccccc43)CC2)c1OC` (stereo not drawn), the activity (Tm shift, normalised) was inactive: -0.195%. With `CCC(c1nnnn1C1CCCCC1)N1CCC(n2c(=O)[nH]c3ccccc32)CC1` (stereo not drawn) the activity (Tm shift, normalised) was inactive: 40.8%. With `O=c1[nH]c2ccccc2n1C1CCN(C(c2ccnc3ccccc23)c2nnnn2C2CCCCC2)CC1` (stereo not drawn) the activity (Tm shift, normalised) was inactive: -0.353%. With `COc1cc(OC)cc(C(=O)NCC2(N3CCCCC3)CCCCC2)c1` the activity (Tm shift, normalised) was inactive: -0.164%. In the case of `CN1CCC(Nc2ccc(Cl)cc2)CC1`, the activity (Tm shift, normalised) is reported as inactive: 0.267%. For `COc1cccc(C(=O)N(c2cc(C)cc(C)c2)C2CCN(C(=O)OC(C)(C)C)CC2)c1`, the activity (Tm shift, normalised) was inactive: -0.222%. In the case of `COc1cc(OC)cc(C(=O)NCC2(N3CCOCC3)CCCCC2)c1`, the activity (Tm shift, normalised) is reported as inactive: 42.7%. In the case of `COc1cccc(C(c2nnnn2C2CCCC2)N2CCC(n3c(=O)[nH]c4ccccc43)CC2)c1OC` (stereo not drawn), the activity (Tm shift, normalised) is reported as inactive: -0.165%. In the case of `CC(C)(C)OC(=O)N1CCC(Nc2ccccc2)CC1`, the activity (Tm shift, normalised) is reported as inactive: 42.8%. With `NN(c1ccccc1)C1CCN(CCc2ccccc2)CC1` the activity (Tm shift, normalised) was inactive: -0.384%. In the case of `O=C(O)C1(Nc2ccccc2)CCN(Cc2ccccc2)CC1`, the activity (Tm shift, normalised) is reported as inactive: -0.134%. `CCCOc1ccc(C(=O)NCC2(N(C)C)CCCCC2)cc1` was tested, and the activity (Tm shift, normalised) was inactive: -0.218%. `O=c1[nH]c2ccccc2n1C1CCN(C(c2cc3ccccc3o2)c2nnnn2C2CCCC2)CC1` (stereo not drawn) was tested, and the activity (Tm shift, normalised) was inactive: -0.131%. In the case of `CN1CCC(Nc2ccc(F)c(Cl)c2)CC1`, the activity (Tm shift, normalised) is reported as inactive: -0.356%. `O=c1[nH]c2ccccc2n1C1CCN(C(c2cc3ccccc3o2)c2nnnn2C2CCCCC2)CC1` (stereo not drawn) was tested, and the activity (Tm shift, normalised) was inactive: -0.104%. For `O=C(OC1CN2CCC1CC2)C1c2ccccc2Oc2ccccc21` (stereo not drawn), the activity (Tm shift, normalised) was inactive: 0.029%. For `O=C(NCC1(N2CCCCC2)CCCCC1)c1ccc(Cl)s1`, the activity (Tm shift, normalised) was inactive: 0.097%. For `N#CC1(Nc2ccccc2)CCN(Cc2ccccc2)CC1`, the activity (Tm shift, normalised) was inactive: 0.171%. `COc1ccc(Cl)cc1C(=O)NCC1(N2CCOCC2)CCCCC1` was tested, and the activity (Tm shift, normalised) was inactive: -0.257%. In the case of `CCCCn1nnnc1C(c1ccc(OC)cc1)N1CCC(n2c(=O)[nH]c3ccccc32)CC1` (stereo not drawn), the activity (Tm shift, normalised) is reported as inactive: -0.483%. For `O=c1[nH]c2ccccc2n1C1CCN(C(c2ccccc2OC(F)(F)F)c2nnnn2C2CCCCC2)CC1` (stereo not drawn), the activity (Tm shift, normalised) was inactive: -0.734%. `O=C(NCC1(N2CCCCC2)CCCCC1)c1ccc(Cl)nc1` was tested, and the activity (Tm shift, normalised) was inactive: 0.122%. In the case of `Cc1cc(C)cc(N(C(=O)c2ccccc2)C2CCN(C(=O)OC(C)(C)C)CC2)c1`, the activity (Tm shift, normalised) is reported as inactive: 0.097%. In the case of `CSc1ccccc1C(=O)NCC1(N2CCCCC2)CCCCC1`, the activity (Tm shift, normalised) is reported as inactive: 41%. `Cc1cccc(NC2(C#N)CCN(Cc3ccccc3)CC2)c1` was tested, and the activity (Tm shift, normalised) was inactive: 0.156%. For `COc1ccc(C(=O)NCC2(N3CCCCC3)CCCCC2)cc1`, the activity (Tm shift, normalised) was inactive: 0.285%. `CCC(c1nnnn1C1CCCC1)N1CCC(n2c(=O)[nH]c3ccccc32)CC1` (stereo not drawn) was tested, and the activity (Tm shift, normalised) was inactive: -0.05%. For `CC(C)(C)OC(=O)N1CCC(N(C(=O)c2ccccc2)c2ccc(F)cc2)CC1`, the activity (Tm shift, normalised) was inactive: -0.152%. For `COc1ccc(C(=O)NCC2(N3CCCCC3)CCCCC2)c(OC)c1OC`, the activity (Tm shift, normalised) was inactive: 0.314%. `O=C(NCC1(N2CCCCC2)CCCCC1)c1ccc(=O)[nH]c1` was tested, and the activity (Tm shift, normalised) was inactive: -0.169%.
